{"source": "patent US6824928B2", "about": "“Organic borate compounds and the nonaqueous electrolytes and lithium secondary batteries using the compounds” (Hitachi, Ltd., priority 2000, dated 2004)", "key": {"[1]": {"test": "Electroconductivity in fluorinated solvent B (HFE7100/DMC 80:20)", "assay_type": "physicochemical"}, "[2]": {"settings": "solvent A: PC/DMC 1:2; at the dissolved concentration (about 0.1 M)"}}}
{"substance": "Lithium bis-salicylate borate [reference compound]", "values": [{"measurement": "electroconductivity (result in words)", "setting": "[1]", "value": "no electroconductivity has been measurable"}, {"measurement": "electroconductivity of the nonaqueous electrolyte", "setting": "[2]", "value": 0.43, "unit": "mS/cm"}]}
